# Screening results (PubChem BioAssay)
# An excerpt weighted towards active compounds, which were near 1.8% of everything screened.
# RAD54 inh: RAD54 (human) branch migration inhibition; Q92698; RAD54 Holliday junction branch migration, FAM/BHQ fluorescence; inhibition, % at 10.4 µM; hit rate 0.14% among 360,000; AID 602329;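 active = mean normalized replicate activity at least 40 and at least half of replicates scoring 40 or more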;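 note: 0% = median of neutral control wells and 100% = median of positive control wells; inhibitors cause a drop in the FAM fluorescence signal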
# AF4-AF9 inh: inhibitors of human MLL-AF4/AF9 interaction. AlphaScreen, biotin-AF4 peptide binding to FLAG-AF9. inhibition, % at 10 µM. hit rate 0.47% among 350,000;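 active = every replicate reaching a set inhibition limit, whatever the replicate mean, cut at about 25% in these data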;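 note: 0% = plate neutral control median and 100% = total signal loss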
# UUG fidelity: modulators of start codon recognition fidelity in yeast. S. cerevisiae UUG-firefly luciferase reporter, luminescence/redox ratio. activity score, % at 18.7 µM. 0.13% of 350,000 active. AID 602363;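 active = replicate mean at a twofold rise or more, about +100% in these data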;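 also: firefly luciferase made from a UUG start codon reports start codon fidelity; reporter light over untreated wells divided by growth signal over untreated wells; some hits fall short of that in this replicate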
# RAD52 anneal inh: RAD52 (human) annealing inhibition; hit rate 0.46% among 360,000; recombinant RAD52 DNA annealing, FRET fluorescence; inhibition, % at 18.7 µM; AID 651710; P43351;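 active = every replicate showing at least 50% inhibition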
# SIRT5 inh: blocks human SIRT5 desuccinylation of peptide | inhibition, % at 15 µM | hit rate 1.1% among 330,000 | AID 652115 | Purified SirT5, succinyl-peptide AMC, trypsin-coupled fluorescence; in the data active = inhibition above about 15%
# E-sel inducer: E-selectin induction on HUVECs; activation, % at 7.58 µM; hit rate 0.37% among 260,000; HUVEC E-selectin immunofluorescence imaging; normalized: neutral wells 0, TNF-alpha wells 100;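 active = mean E-selectin-positive cell signal at least 10% of the positive control, reached in at least 60% of replicates, without over 20% cell loss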
#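 Read-out basis: % PE-positive cells; Test system: HUVEC primary endothelial cells; Technique: immunofluorescence imaging; Dosing: single-point compound dose.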
# * marks the source's active call; other numbers are inactive results; / = no result given.
SMILES,RAD54 inh,AF4-AF9 inh,UUG fidelity,RAD52 anneal inh,SIRT5 inh,E-sel inducer
CO[C@@H]1CN(C)C(=O)c2cc(NC(=O)C3CC3)ccc2OC[C@@H](C)N(S(=O)(=O)c2ccc(Cl)cc2)C[C@H]1C,6,2,2,8,2,/
Cc1ccccc1S(=O)(=O)N1CC(=O)N2[C@H](C1)[C@H](c1ccc(C#CC3CC3)cc1)[C@@H]2CO,/,1,/,-10,1,0
CCC(=O)N(C)C[C@H]1Oc2cc(C#Cc3ccccc3)ccc2S(=O)(=O)N([C@H](C)CO)C[C@H]1C,-6,-6,2,-31,2,0
CCC(=O)N(C)C[C@@H]1Oc2cc(C#Cc3ccccc3)ccc2S(=O)(=O)N([C@H](C)CO)C[C@@H]1C,5,4,0,-11,10,0
C[C@@H]1CN([C@@H](C)CO)S(=O)(=O)c2ccc(C#Cc3ccccc3)cc2O[C@@H]1CN(C)C(=O)CN(C)C,-3,13,25,51*,2,1
C[C@@H]1CN([C@@H](C)CO)S(=O)(=O)c2ccc(C#Cc3ccccc3)cc2O[C@H]1CN(C)C(=O)C1CC1,6,-3,-31,9,20*,0
C[C@H]1CN([C@@H](C)CO)S(=O)(=O)c2ccc(C#Cc3ccccc3)cc2O[C@H]1CN(C)C(=O)CN(C)C,10,18,30,70*,-17,0
C[C@@H]1CN([C@H](C)CO)S(=O)(=O)c2ccc(C#CC3CCCC3)cc2O[C@@H]1CN(C)C(=O)Cc1ccccc1,-7,-10,-12,1,3,0
C[C@H]1CN([C@@H](C)CO)S(=O)(=O)c2ccc(C#CC3CCCC3)cc2O[C@H]1CN(C)C(=O)Cc1ccccc1,3,1,-9,-6,17*,0
COc1ccc(NC(=O)N(C)C[C@@H]2Oc3c(NC(=O)Nc4ccc(F)cc4)cccc3C(=O)N([C@@H](C)CO)C[C@H]2C)cc1,-8,-1,18,6,6,0
C[C@H]1CN([C@@H](C)CO)C(=O)c2cccc(NS(=O)(=O)c3ccccc3)c2O[C@@H]1CN(C)S(=O)(=O)c1cccs1,/,-1,/,4,-2,0
COc1cccc(S(=O)(=O)N2CCCCN3[C@H](CO)[C@@H](c4ccc(C#CC(C)C)cc4)[C@@H]3C2)c1,11,-1,3,-12,0,-1
COc1ccc(S(=O)(=O)N2CCCCN3[C@H](C2)[C@@H](c2ccc(C#CC4CC4)cc2)[C@@H]3CO)cc1,-1,/,1,/,/,-1
COc1ccc(S(=O)(=O)N2CCCCN3[C@H](CO)[C@H](c4ccc(C#CCC(C)C)cc4)[C@H]3C2)cc1,-13,/,11,/,/,-1
COc1ccc(S(=O)(=O)N2CCCCN3[C@H](CO)[C@H](c4ccc(C#CCC(C)C)cc4)[C@@H]3C2)cc1,-1,-3,-7,-2,16*,-1
COc1ccc(S(=O)(=O)N2CCCCN3[C@H](CO)[C@@H](c4ccc(C#CC5CC5)cc4)[C@@H]3C2)cc1,6,-5,19,-24,20*,0
COc1ccc(S(=O)(=O)N2CCCCN3[C@H](CO)[C@H](c4ccc(C#CC(C)C)cc4)[C@H]3C2)cc1,23,1,4,48,20*,0
COc1ccc(S(=O)(=O)N2CCCCN3[C@H](C2)[C@@H](c2ccc(C#CC(C)C)cc2)[C@@H]3CO)cc1,-2,-9,8,-5,16*,-1
CC(C)NC(=O)Nc1ccc2c(c1)C(=O)N([C@@H](C)CO)C[C@H](C)[C@@H](CN(C)S(=O)(=O)c1cn(C)cn1)OCCCC[C@H](C)O2,-1,0,-10,-11,-3,/
O=C(N[C@H]1CC[C@@H](CCNS(=O)(=O)c2ccc(Cl)cc2)O[C@@H]1CO)c1cccc(F)c1,-1,-3,6,1,-1,-1
CCCC#Cc1ccc2c(c1)O[C@@H](CN(C)CCC)[C@@H](C)CN([C@@H](C)CO)S2(=O)=O,-2,3,10,2,1,85*
CCCC#Cc1ccc2c(c1)O[C@@H](CN(C)CC1CCOCC1)[C@@H](C)CN([C@H](C)CO)S2(=O)=O,-8,4,/,-7,7,0
CCCN(C)C[C@@H]1Oc2cc(C#CCC(C)C)ccc2S(=O)(=O)N([C@H](C)CO)C[C@@H]1C,-1,5,-3,28,2,1
CCCC#Cc1ccc2c(c1)O[C@@H](CN(C)CC1CCOCC1)[C@H](C)CN([C@H](C)CO)S2(=O)=O,-3,6,/,6,24*,0
COCC(=O)N(C)C[C@H]1Oc2cc(-c3ccccc3F)ccc2S(=O)(=O)N([C@@H](C)CO)C[C@H]1C,-2,0,/,3,0,0

# (listing goes on)
SMILES,RAD54 inh,AF4-AF9 inh,UUG fidelity,RAD52 anneal inh,SIRT5 inh,E-sel inducer
Cc1ccc(S(=O)(=O)N(C)C[C@H]2Oc3ccc(NS(C)(=O)=O)cc3CC(=O)N([C@@H](C)CO)C[C@@H]2C)cc1,15,-14,-5,-8,0,0
COc1ncnc2c1ncn2CCCN1CCN(Cc2cccc3ccccc23)CC1,-10,4,-15,0,26*,-1
C[C@@H]1CN([C@H](C)CO)S(=O)(=O)c2ccc(-c3cccnc3)cc2O[C@H]1CN(C)C(=O)C1CCCCC1,-2,8,-1,3,-1,0
Cc1cccc(Cl)c1NC(=O)NCCCN1CCCCC1C (stereo not given),/,0,/,-12,23*,0
Cc1cccc(Cl)c1NC(=O)NCCCN1CCOCC1,/,2,/,-10,/,0
CC(C)N(C(=O)[C@H]1C[C@H](CC(=O)NCCCN(C)C)C(=O)N2CCc3c([nH]c4cc(-c5ccco5)ccc34)[C@]12C)C(C)C,16,29*,7,49,-9,0
C[C@H](CO)N1C[C@H](C)[C@H](CN(C)Cc2ccccc2)OCCCC[C@H](C)Oc2ccc(NC(=O)Nc3cccc4ccccc34)cc2C1=O,2,1,8,-16,2,/
O=C(c1cc(-c2cccs2)on1)N1CCN(C(c2ccccc2)c2ccccc2)CC1,1,/,-13,/,/,/
CCCc1cc(C(=O)N2CCN(C(c3ccccc3)c3ccccc3)CC2)no1,3,50*,-10,-6,1,4
C[C@@H]1CN([C@@H](C)CO)C(=O)c2cc(NC(=O)Nc3cccc4ccccc34)ccc2O[C@@H](C)CCCCO[C@@H]1CN(C)Cc1ccccc1,-3,6,13,-11,3,/
Cc1nnc2ccc(N3CCN(c4cccc(C(F)(F)F)c4)CC3)nn12,6,51*,-22,2,-2,1
Cc1nnc2ccc(N3CCCCC3)nn12,-5,-1,-10,-9,1,0
CCC(=O)Nc1ccc2c(c1)C(=O)N(C)[C@H]1CC[C@H](CC(=O)NCCc3ccccc3)O[C@@H]1CO2,-13,-6,20,8,3,0

# 2 compounds from above, reduced to SIRT5 inh, E-sel inducer and UUG fidelity.
mol | SIRT5 inh | E-sel inducer | UUG fidelity
Cc1cccc(Cl)c1NC(=O)NCCCN1CCOCC1 | / | 0 | /
Cc1nnc2ccc(N3CCN(c4cccc(C(F)(F)F)c4)CC3)nn12 | -2 | 1 | -22

# Ordered by the number under UUG fidelity (lowest first): three from the list above
SMILES | AF4-AF9 inh | UUG fidelity | RAD52 anneal inh | SIRT5 inh
C[C@@H]1CN([C@H](C)CO)S(=O)(=O)c2ccc(C#CC3CCCC3)cc2O[C@@H]1CN(C)C(=O)Cc1ccccc1 | -10 | -12 | 1 | 3
COc1cccc(S(=O)(=O)N2CCCCN3[C@H](CO)[C@@H](c4ccc(C#CC(C)C)cc4)[C@@H]3C2)c1 | -1 | 3 | -12 | 0
COc1ccc(S(=O)(=O)N2CCCCN3[C@H](CO)[C@@H](c4ccc(C#CC5CC5)cc4)[C@@H]3C2)cc1 | -5 | 19 | -24 | 20*
